Measured affinities in a library of Ab-14 light chain variants

The measurements come from Li et al. 2023 (doi:10.1038/s41467-023-39022-2) through the FLAb antibody collection.

The target is the same throughout: PDVDLGDISGINAS, from the HR2 region of SARS-CoV-2 spike.

Parent scFv Ab-14: VH joined to VL by three GGGGS repeats. Changes lie in the light chain CDRs alone.
VH: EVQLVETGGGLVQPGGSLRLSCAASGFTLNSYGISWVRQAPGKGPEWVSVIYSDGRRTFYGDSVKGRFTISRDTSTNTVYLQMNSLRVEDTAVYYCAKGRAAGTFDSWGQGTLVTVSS
VL: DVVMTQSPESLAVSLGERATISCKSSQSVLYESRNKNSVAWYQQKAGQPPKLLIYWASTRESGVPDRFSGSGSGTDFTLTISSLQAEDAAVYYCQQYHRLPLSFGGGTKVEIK

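Phage display of a naive human antibody library on the peptide gave the parent. The variants were designed computationally from a first round of random CDR variants and then made and measured. Group labels follow the data file (Ctrl: baseline library sampled from a position-specific scoring matrix, with some repeated check sequences; En: ensemble of fine-tuned language models; GP: Gaussian process model; HC: hill climbing; Gen: genetic algorithm; Gibbs: Gibbs sampling; a sequence that several methods proposed may carry one label only). Affinity was read by AlphaSeq, a pooled yeast mating assay with surface-displayed partners. After mating in shaken culture at 30 °C for 16 h, diploids were selected and their barcode pairs sequenced. A regression on co-assayed BCL2-family reference pairs converts the normalised counts of each replicate to an apparent Kd. The assay was run in six technical replicates.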

Each variant is given by its three light chain CDRs, as the data file delimits them; those of the parent are KSSQSVLYESRNKNSVA, WASTRES, QQYHRLPLS. Scale: log10 of Kd in nM, estimated from mating counts; low values are strong binders. "nd" marks a missing value. The strain was present, yet no cells mated with the target were sequenced in that replicate, which points to weak or no binding. The parent sequence was in this pool as ten entries: three were never detected, three once, and four in most replicates, with averages from 0.34 to 2.37.

CDR-L1 | CDR-L2 | CDR-L3 | group | log10 Kd (nM) by replicate | empty controls
KLSQSVLYESRQKNSVA | NASYRES | QQYHRLPLS | GP_Gen | 0.04 / 0.05 / 0.18 / 0.23 / -0.04 / 0.34 | 5 of 18 (2.97)
QLSMITGHMSVSKNNVA | EMETREE | QQYDRLPLS | En_Gen | 0.99 / 0.94 / 1.09 / 0.53 / 0.50 / 0.84 | 0 of 18
KLSQSVLYESRMKNAVA | NASTRES | QQYHRLPLS | GP_Gen | 0.06 / -0.40 / -0.52 / -0.60 / -0.30 / -0.12 | 0 of 18
DLSQSWLYESRNKNSVA | GASTRES | QQYHRLPLS | GP_HC | -0.21 / -0.37 / -0.53 / -0.58 / -0.60 / -0.32 | 1 of 18 (2.59)
KLSQSVNMTGKNKNSVA | ELTFRES | QQYERLPLS | En_HC | 1.63 / 2.39 / 1.69 / 3.21 / 1.67 / 2.07 | 1 of 18 (3.58)
HIDQYTSYDNGENRAIA | DVSIKDY | QQYARLPLL | En_Gibbs | 0.49 / 0.53 / 0.36 / 0.56 / 0.75 / 0.43 | 2 of 18 (2.71)
FSSISVLYESRNKNSVA | TASTRAS | QQYHRLPLL | Ctrl | nd / nd / 1.59 / nd / nd / nd | 0 of 18
KVSWSVLFESRNKNSVA | DASTRSS | QQYHRLPLS | GP_HC | 0.27 / -0.06 / 0.04 / -0.11 / -0.03 / 0.25 | 1 of 18 (2.93)
HIGLSTMLEEIVRNSVA | NNSTRED | QQYDRLPLS | En_Gen | 2.26 / 2.57 / nd / 1.22 / 2.64 / 1.79 | 0 of 18
MISQLMNLGQFAINSVA | QASIRNQ | QQYDRLPLV | En_Gen | nd / nd / nd / 2.29 / nd / nd | 0 of 18
KVSQSVLMESCNVNNVA | NASTRED | QQYHRLPLS | GP_Gibbs | 0.42 / 0.55 / 0.34 / 0.41 / 0.62 / 0.54 | 3 of 18 (2.66)
WLSMWEQSGTRGYSSVA | DTDVRMA | QQYHRLPLS | En_Gibbs | 0.10 / -0.07 / -0.08 / -0.18 / -0.19 / 0.05 | 1 of 18 (2.42)
KLPQSVGYESRNKNSVA | HASTRES | QQYHRLPLS | GP_Gen | 0.00 / 0.13 / -0.09 / -0.25 / -0.21 / 0.04 | 1 of 18 (2.11)
KAQDGELYESRDKNSVA | DASKRLS | QQYHRLPLS | GP_Gibbs | -0.22 / 0.07 / -0.12 / -0.11 / -0.31 / -0.22 | 0 of 18
KSSQSVLYDSRNKNSVA | WASTRRS | QQYHRLPLS | Ctrl | 2.11 / 2.25 / 2.37 / 0.70 / 2.69 / 2.00 | 2 of 18 (2.79)
KQSQSVLYESRNKNSVA | SASTRES | QQYSRLPLS | Ctrl | 0.05 / -0.45 / -0.29 / -0.52 / -0.36 / -0.29 | 1 of 18 (1.59)
MLSQMWALGQKVKNSVA | QASMRFN | QQYDRLPLE | En_Gen | 1.24 / 1.97 / 2.20 / 0.68 / 1.29 / 2.05 | 0 of 18
KLPQSVLYESRNKNSVA | NASTRED | QQYHRLPLS | GP_Gen | 0.09 / -0.08 / -0.09 / -0.08 / -0.13 / -0.04 | 1 of 18 (3.05)
KLQQQSLYESRNKNSVA | EASTRES | QQYHRLPLS | GP_Gibbs | 0.07 / 0.62 / -0.47 / -0.55 / -0.24 / 0.45 | 0 of 18
KVNISPHKQGMHKHGVA | DHDMRVA | QQYDRLPLT | En_Gibbs | 0.67 / 0.70 / 0.68 / 0.88 / 0.57 / 0.66 | 1 of 18 (2.78)
RSSQSVLGESRYKNSVA | KASTRES | QQYHRLLLS | Ctrl | nd / nd / nd / nd / nd / nd | 0 of 18
TISQSAQTESHNKNSVA | DLSVRGS | QQYDRLPLS | En_HC | 1.23 / 0.45 / 0.53 / 0.75 / 0.85 / 1.02 | 0 of 18
KSSQSVLYFSRAENSVA | WASTRES | QQYHRLPLS | Ctrl | nd / nd / nd / nd / nd / nd | 0 of 18
KLPQSWLYESRNKNSVA | EASQRES | QQYHRLPLS | GP_Gen | -0.02 / -0.23 / -0.06 / -0.24 / -0.29 / -0.09 | 0 of 18
KSSQSDLYESRNKNSVA | WASTRES | QQYHRLPFS | Ctrl | 1.45 / 2.80 / 2.47 / 1.82 / 1.62 / 2.01 | 0 of 18
KISFLDYRGSQWHNNIA | EGSQRAE | QQYIRLPLN | En_Gibbs | 0.59 / 0.47 / 0.30 / 0.42 / 0.21 / 0.58 | 1 of 18 (4.73)
TLTQVQGMESHNKNSVA | DLSTRGS | QQYHRLPLS | En_HC | 0.17 / 0.01 / -0.22 / -0.34 / -0.07 / 0.28 | 0 of 18
KLSMSMLYESRNKNSVA | NASTRES | QQYHRLPLS | GP_Gen | 0.10 / 0.00 / 0.06 / 0.05 / 0.01 / 0.26 | 1 of 18 (4.74)
KSSQSVLLESRNKNSVA | WASTRNS | QQVHRLPLS | Ctrl | nd / nd / nd / nd / 3.57 / nd | 0 of 18
MVSQLMVWGLHAKNSIA | EAQTRIN | QQYDRLPLF | En_Gen | 1.49 / 2.07 / 1.34 / 1.86 / 2.34 / 1.82 | 0 of 18
KFSQSVCKESRNKNSVA | QASTRES | QQYHRLPLS | Ctrl | 0.46 / 0.20 / 0.24 / 0.22 / 0.22 / 0.41 | 1 of 18 (2.55)
KQSESVLYESRNKNSVA | DASTRSS | QQYHRLPLS | GP_HC | 0.19 / 0.05 / -0.17 / 0.05 / 0.08 / 0.11 | 0 of 18
KISFQYRYEQLQKNSIA | EVQTRLK | QQYHRLPLS | En_HC | nd / 2.05 / 2.21 / 2.22 / 1.14 / 1.09 | 0 of 18
KLYVSTMLESHQKNSIA | DLSTRGN | QQYHRLPLS | En_HC | 0.50 / 0.19 / 0.33 / 0.23 / 0.24 / 0.23 | 1 of 18 (3.35)
KSLQSVLYESRMKNSVA | HASTRED | QQYHRLPLS | GP_HC | nd / 1.52 / nd / 1.21 / 2.48 / nd | 0 of 18
KLSQSVLYESRNKMSVA | NASTRES | QQYHRLPLS | GP_Gen | -0.06 / -0.21 / -0.26 / -0.25 / -0.08 / -0.01 | 2 of 18 (3.23)
KLSMSELYESRNKNSVA | NASTRLS | QQYHRLPLS | GP_Gen | -0.01 / -0.19 / -0.11 / -0.29 / -0.12 / -0.23 | 1 of 18 (3.67)

Picked from the list: the 4 lowest averages where every replicate gave a value.

CDR-L1 | CDR-L2 | CDR-L3 | group | log10 Kd (nM) by replicate | empty controls
DLSQSWLYESRNKNSVA | GASTRES | QQYHRLPLS | GP_HC | -0.21 / -0.37 / -0.53 / -0.58 / -0.60 / -0.32 | 1 of 18 (2.59)
KLSQSVLYESRMKNAVA | NASTRES | QQYHRLPLS | GP_Gen | 0.06 / -0.40 / -0.52 / -0.60 / -0.30 / -0.12 | 0 of 18
KQSQSVLYESRNKNSVA | SASTRES | QQYSRLPLS | Ctrl | 0.05 / -0.45 / -0.29 / -0.52 / -0.36 / -0.29 | 1 of 18 (1.59)
KLSMSELYESRNKNSVA | NASTRLS | QQYHRLPLS | GP_Gen | -0.01 / -0.19 / -0.11 / -0.29 / -0.12 / -0.23 | 1 of 18 (3.67)

Nonspecific signal, from three strains lacking the peptide, appeared in 4% of pairings of all light chain designs, centred on 2.64 (5% of these signals below 1.59); values are not corrected for it. The control count says in how many pairings with the empty strains this scFv gave a signal, with their mean in brackets. The authors' rule: three or more of the six replicates give a measured affinity, fewer mean a poor binder. Values of this round are not directly comparable with the first-round values of the same sequences.